Laboratory results as given in paper PMC7673538 (PLoS Biology, 2020).

Test system: HeLa R19 cells

(S)-fluoxetine [reference compound]
CC50: 21.6 ± 1.4 µM
